Results taken from US20170112714A1, “METHOD FOR ALLEVIATING OR TREATING ANAPHYLAXIS” (Korea Bio Medical Science Institute, priority 2015, published 2017).

System: histamine
Experiment: Histamine assay in serum (o-phthalaldehyde spectrofluorometric procedure)
Format: in vivo
Details: ketotifen in compound 48/80 treated mice

CN1CCC(=C2c3ccccc3CC(=O)c3sccc32)CC1 [ketotifen]
histamine: significantly reduced
